# Experimental data as given in patent US4298739A, “Novel carbostyril derivatives” (priority 1977, dated 1981).
# Target: T1, cyclic AMP phosphodiesterase (Oryctolagus cuniculus, UniProt G1ST54)
# T1 construct: the supernatant was collected to use it as a crude enzyme solution; from tissue; host or cells: rabbit platelets (from platelet-rich plasma), 100,000 xg supernatant, DEAE-cellulose fraction
# T1 sequence (G1ST54 1-1128): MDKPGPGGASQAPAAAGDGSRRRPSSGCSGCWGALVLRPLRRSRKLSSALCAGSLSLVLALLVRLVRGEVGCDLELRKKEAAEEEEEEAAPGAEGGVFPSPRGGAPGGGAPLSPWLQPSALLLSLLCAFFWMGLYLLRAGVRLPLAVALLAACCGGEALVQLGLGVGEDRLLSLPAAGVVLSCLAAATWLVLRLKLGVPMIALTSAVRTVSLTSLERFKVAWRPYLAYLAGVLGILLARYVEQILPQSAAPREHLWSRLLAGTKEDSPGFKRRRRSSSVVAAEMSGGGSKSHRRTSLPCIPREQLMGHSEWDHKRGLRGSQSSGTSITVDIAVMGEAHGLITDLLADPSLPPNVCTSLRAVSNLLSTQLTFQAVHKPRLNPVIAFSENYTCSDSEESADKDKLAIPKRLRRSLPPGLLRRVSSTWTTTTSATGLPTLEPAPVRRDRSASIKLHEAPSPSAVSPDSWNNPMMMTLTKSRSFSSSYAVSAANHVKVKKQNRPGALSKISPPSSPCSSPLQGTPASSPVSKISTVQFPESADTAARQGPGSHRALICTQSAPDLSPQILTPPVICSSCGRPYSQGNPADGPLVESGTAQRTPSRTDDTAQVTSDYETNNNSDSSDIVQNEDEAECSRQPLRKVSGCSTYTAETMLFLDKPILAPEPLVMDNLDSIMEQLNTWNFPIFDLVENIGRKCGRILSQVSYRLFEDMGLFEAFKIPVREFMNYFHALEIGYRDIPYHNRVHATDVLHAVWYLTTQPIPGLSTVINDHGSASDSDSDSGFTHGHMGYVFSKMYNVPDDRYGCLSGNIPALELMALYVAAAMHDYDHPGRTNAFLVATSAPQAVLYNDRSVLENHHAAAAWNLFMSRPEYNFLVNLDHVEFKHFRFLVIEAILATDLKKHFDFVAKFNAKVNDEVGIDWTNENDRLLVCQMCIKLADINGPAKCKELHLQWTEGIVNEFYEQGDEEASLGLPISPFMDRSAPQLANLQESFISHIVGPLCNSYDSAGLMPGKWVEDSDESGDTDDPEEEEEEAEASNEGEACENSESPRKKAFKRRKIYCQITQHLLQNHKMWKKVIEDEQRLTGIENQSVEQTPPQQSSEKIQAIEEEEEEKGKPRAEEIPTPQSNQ
# Experiment: Obstructive action against cyclic AMP phosphodiesterase
# Format: biochemical, rabbit
# Conditions: pH 8, read-out: phosphodiesterase obstruction rate
# Experimental: The obstructive action against cyclic AMP phosphodiesterase was measured according to the activity measuring method described in "Biochimica et Biophysica Acta", Vol. 429, pp. 485-497 (1976) and "Biochemical Medicine", Vol. 10, pp. 301-311 (1974).
# That is, for determining the obstructive activity against cyclic AMP phosphodiesterase, 10 ml of a solution obtained by adding 1 mmol of MgCl2 into 50 mmol of tris-hydrochloric acid buffer with pH 7.4 was added to the platelets obtained by further centrifuging the abovesaid rabbit PRP at 3,000 r.p.m. for 10 minutes, and the suspended platelets were ground by a Teflon potter type homogenizer. This was followed by two times of freezing and thawing treatment and 300-second fracturing with 200 watt supersonic waves. After additional 60-minute centrifugation with 100,000 xg, the supernatant was collected to use it as a crude enzyme solution.
# 10 Milliliters of this crude buffer solution was added to a 1.5×20 cm DEAE-cellulose column which has previously been buffered with 50 mmol of tris-acetate buffer (pH 6.0), followed by washing and elution with 30 ml of 50 mmol tris-acetate buffer, and this buffer solution was subjected to linear gradient elution with 0 to 0.5 moles of sodium acetate-tris-acetatebuffer. The flow rate was 0.5 ml/min, and 5 ml of each fraction was batched out. […] This fraction was used as cyclic AMP phosphodiesterase.
# 0.1 Milliliter of an aqueous solution of each test compound of a specified concentration was mixed with 40 mmol of tris-hydrochloric acid buffer (pH 8.0, containing 50 μg of cow serum albumin and 4 mmol of MgCl2) containing predetermined 1.0 μmol of cyclic AMP (tritium cyclic AMP), and 0.2 ml of this mixed solution was used as substrate solution. […]
# The reaction system was then immersed in boiling water for 2 minutes to stop the reaction, and then this reaction solution was cooled in ice water and, for converting the produced tritium 5'-AMP into tritium adenosine, the solution was added with 0.05 ml (1 mg/ml) of snake poison as 5'-nucleotidase and reacted at 30° C. for 10 minutes. […] The whole quantity of the elutant was added with 10 ml of a triton-toluene type scintillator and the produced tritium adenosine was measured by a liquid scintillation counter to determine the phosphodiesterase activity.
# In this way, the phosphodiesterase activation value (Vs) of the test compounds of the respective concentrations was determined, and the phosphodiesterase obstruction rate (%) was determined from said activation value (Vs) and control value (Vc) (obtained from water not containing any test compound) from the following formula: [formula]
structure (smiles),measurement,value
"COc1ccc(Cc2nccc3cc(OC)c(OC)cc23)cc1OC [Papaverine, papaverine, reference compound]",inhibition at 0.1 µM,57.3%
same,inhibition at 1 µM,91.4%
same,inhibition at 10 µM,99.8%
same,inhibition at 100 µM,100%
